In the experiment the target is BTK protein kinase (Homo sapiens, UniProt Q06187). The experiment can be described thus: In vitro enzymatic activity against BTK (ADP-Glo). It counts as biochemical. The protocol: In vitro enzymatic activity of the compounds against BTK was determined in a experimental assay of in vitro enzymatic activity using […] kit (purchased from Progema, USA).
9 μL of BTK protein kinase (at a concentration of 1.5 ng/μL) was used to react with compounds (1 μL) shown in the following table that were diluted three times in gradient at room temperature for 4 hours (the final concentration of the compound being 10 μM, 3 μM, 1 μM, 0.3 μM, 0.1 μM, 0.03 μM, 0.01 μM, 0.003 μM);
2 μL of ATP and 3 μL of the substrate Poly(4:1 Glu, Tyr)Peptide (Promega, USA) (the final concentrations being 10 μM and 0.2 μg/μL, respectively) were added to allow reaction at 37° C. for 1 hour;
5 μL of BTK kinase solution after reaction was taken and added into 5 μL of ADP-Glo™ (Promega, USA) reagent to allow reaction at room temperature for 40 mins so as to terminate the kinase reaction and exhaust the remaining ATP;
10 μL kinase detecting reagent was added to convert ADP to ATP, and newly synthesized ATP was detected using coupled luciferase/[…] reaction, then the IC50 values were calculated by using a plotting method based on the Envision reading.
(ADP-Glo turns the ADP formed in a reaction into a luminescent signal.)

The chains behind the UniProt entries cited, without tags or fusion partners. Where a name states a change or a piece, a line headed by the entry shows the natural chain unless it says otherwise.
UniProt Q06187: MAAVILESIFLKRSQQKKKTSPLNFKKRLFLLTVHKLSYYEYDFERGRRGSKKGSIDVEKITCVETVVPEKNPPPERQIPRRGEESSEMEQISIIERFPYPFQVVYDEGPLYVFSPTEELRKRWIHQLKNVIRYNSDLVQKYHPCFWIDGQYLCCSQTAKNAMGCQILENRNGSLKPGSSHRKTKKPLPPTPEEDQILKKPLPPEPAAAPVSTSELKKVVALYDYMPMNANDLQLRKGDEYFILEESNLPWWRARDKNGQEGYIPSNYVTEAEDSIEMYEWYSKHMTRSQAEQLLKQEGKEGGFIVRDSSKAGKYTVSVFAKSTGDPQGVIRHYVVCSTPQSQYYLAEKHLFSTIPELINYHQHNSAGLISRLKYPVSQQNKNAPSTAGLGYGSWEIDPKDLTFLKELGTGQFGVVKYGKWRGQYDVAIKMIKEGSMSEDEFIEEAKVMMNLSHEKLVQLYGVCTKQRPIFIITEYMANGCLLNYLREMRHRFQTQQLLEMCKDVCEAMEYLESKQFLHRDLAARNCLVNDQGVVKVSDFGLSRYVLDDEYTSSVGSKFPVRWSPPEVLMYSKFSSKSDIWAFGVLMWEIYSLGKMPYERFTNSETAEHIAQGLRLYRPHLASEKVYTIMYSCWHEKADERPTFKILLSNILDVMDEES

Here are results for 1 compound from US10669238B2, “Irreversible bruton's tyrosine kinase inhibitor” (HEFEI INSTITUTES OF PHYSICAL SCIENCE, CHINESE ACADEMY OF …, priority 2016, dated 2020).

For `C=CC(=O)Nc1cc(Nc2cc(-c3cccc(NC(=O)c4ccc(OC)c(OC)c4)c3C)cn(C)c2=O)ccc1C(=O)N1CCOCC1` [Compound 61, N-(3-(5-((3-acrylamide-4-(morpholin-4-carbonyl)phenyl)amino)-1-methyl-6-oxo-1,6-dihydropyridin-3-yl)-2-methylphenyl)-3,4-dimethoxy Benzoylamide], the IC50 (usually the concentration needed to halve the response being measured) is 4.86 µM.
